Assay: Solubility observed for in vivo dosing

With Buprenorphine [reference compound] the “solubility (in words)” value was “poorly soluble”.
